Data published in patent US20180340156A1, “PURIFICATION OF A SOLUBLE AND ACTIVE FORM OF ASPARTATE N-[…]” (The University of Toledo, priority 2015, published 2018).

Experiment: Solubility on concentrating the purified enzyme
Assay type: physicochemical
Settings: attempts to concentrate, without MBP fusion domain
Procedure: By contrast, attempts to concentrate the native enzyme without the MBP fusion domain led to precipitation at protein concentrations less than 1 mg/ml. The MBP-ANAT fusion enzyme was stored at 4° C. for one week and the enzyme activity was assayed each day to evaluate the enzyme stability.

B1: native enzyme: human aspartate N-acetyltransferase without the MBP fusion domain (protein, UniProt Q8N9F0 1-302, looked up)
N-acetylaspartate synthetase: MHCGPPDMVCETKIVAAEDHEALPGAKKDALLAAAGAMWPPLPAAPGPAAAPPAPPPAPVAQPHGGAGGAGPPGGRGVCIREFRAAEQEAARRIFYDGIMERIPNTAFRGLRQHPRAQLLYALLAALCFAVSRSLLLTCLVPAALLGLRYYYSRKVIRAYLECALHTDMADIEQYYMKPPGSCFWVAVLDGNVVGIVAARAHEEDNTVELLRMSVDSRFRGKGIAKALGRKVLEFAVVHNYSAVVLGTTAVKVAAHKLYESLGFRHMGASDHYVLPGMTLSLAERLFFQVRYHRYRLQLREE
  protein concentration at which precipitation occurs: less than 1 mg/ml
